In patent US9056923B2, “Mimetic peptides derived from collagen type IV and their use for treating angiogenesis- and lymphagiogenesis-dependent diseases” (THE JOHNS HOPKINS UNIVERSITY, priority 2010, dated 2015):

What was measured:
Type in all cases: cell-based, human
HUVEC [1] = conditions: for inhibition of proliferation / Activity in Proliferation / Proliferation Inhibition (IC50 in uM): HUVEC; for Activity in Proliferation: Yes/No summary; for Proliferation Inhibition (IC50 in uM): summary tables 2-4, 6, 7
Procedure: Several assays were used to test the peptides discussed in the Examples herein. A colorimetric based proliferation assay using WST-1 (Roche, 11644807001) proliferation reagent was carried out using HUVEC cells. 2000 cells/well were plated in 96-well plates and allowed to adhere overnight. On the following day, the media was exchanged with fully supplemented media containing peptides or equivalent DMSO vehicle for the controls. Three days later the media containing the peptides was replaced with serum-free EBM-2 media containing WST-1 reagent and the plates were incubated for four hours as per the manufacturer's recommendations. Changes in color, due to the formazan dye resulted from the cleavage of the tetrazolium salt WST-1 by the mitochondrial succinate-tetrazolium reductase, were read on a Victor V fluorescence plate reader (Perkin Elmer, MA) by measuring the absorbance at 450 nm Dose response curves of percent live cells (in comparison to untreated cells but incubated in complete media with 0.2% DMSO) were created. Assays were performed in at least two independent replicates and each replicate was performed using three experimental triplicates.

HUVEC [2] = test: HUVEC migration assay (RT-CIM); conditions: for Migration Inhibition (50 uM): 50 uM peptide; for Activity in Migration: Yes/No summary, active = inhibitory potential greater than 30%; for inhibition of migration: concentration not given
Procedure: The inhibitory potential of the peptides was measured using a real time migration assay system based on electrical impedance (RT-CIM, ACEA Biosciences, CA). CIM 16 well plates (Roche, 05665817001) are composed of a top and bottom chamber separated by a microporous (8 μm) polycarbonate membrane. The membrane was coated with fibronectin (20 μg/mL), and 45,000 cells/well in serum free media with or without peptides were added to the top compartment. Media with chemoattractant (i.e., fully supplemented EBM-2) was added to the bottom compartment of the chamber and the plate was incubated at 37° C. for 20 hours. The sensors integrated on the bottom side of the membrane monitor and continuously record changes in impedance as the cells move through the membrane. The RT-CIM technology allows for easy quantification of cell migration by monitoring the cell index derived from the measured impedances. Assays were performed in at least two independent replicates and each replicate was performed using two experimental duplicates.

HUVEC [3] = conditions: for Adhesion Inhibition (100 uM): 100 uM peptide; for Activity in Adhesion: Yes/No summary, active = inhibitory potential greater than 30%; for inhibition of adhesion: concentration not given
Procedure: Similar to the migration assays, the inhibition activity of the peptide in cellular adhesion was assessed using the RT-CIM technology. In this case, 25,000 cells/well were plated in 16 wells E-plates (Roche, Basel Switzerland) in the presence or absence of the peptide. The adhesion was monitored over time (3 hours) by measuring changes in the electrical impedance, which is a direct measure of the cells adhering on the electrodes. […] Assays were performed in at least two independent replicates and each replicate was performed using two experimental duplicates.

HUVEC [4] = test: HUVEC tube formation assay on Matrigel; conditions: for Tube formation Inhibition (100 uM): 100 uM peptide; for Activity in Tube formation: Yes/No summary; for inhibition of tube formation (FIG. 20): high dose, 100 nM
Procedure: The compounds also were tested for their ability to inhibit tube formation, a process critical in angiogenesis. Endothelial cells spontaneously form a network of tubes when plated on extracts of extracellular matrix. This in vitro assay combines aspects of adhesion and migration and it is routinely used in angiogenesis research (Oliveira-Ferrer et al., 2008). The ability to inhibit tube formation is a comprehensive assessment of the anti-angiogenic potential. The protocol was described by Arnaoutova et al. (2009) and it consists of plating HUVEC on top of basement membrane extract and after incubation at 37° C. the cells naturally rearrange themselves in a network of tubes. Thus, 50 μL/well of Matrigel (BD Biosciences, San Jose, Calif.) was plated in a cold 96 well plate and incubated at 37° C. for 30 min for polymerization. 15,000 cells/well were added to the top of the gel and incubated in complete media in the presence or absence of peptide for 19 hours. Images were captured using the CCD Sensicam mounted on a Nikon microscope (Eclipse T-100). Assays were performed in at least two independent replicates and each replicate was performed using three experimental replicates and one image of a randomly chosen field was acquired per well.

| Structure (SMILES) | IC50 (HUVEC [1]) [µM] | inhibition of proliferation (HUVEC [1]) | Activity in Proliferation (HUVEC [1]) | Proliferation Inhibition (IC50 in uM) (HUVEC [1]) | Migration Inhibition (50 uM) (HUVEC [2]) | Activity in Migration (HUVEC [2]) | Adhesion Inhibition (100 uM) (HUVEC [3]) | Activity in Adhesion (HUVEC [3]) | Tube formation Inhibition (100 uM) (HUVEC [4]) | Activity in Tube formation (HUVEC [4]) | inhibition of tube formation (FIG. 20) (HUVEC [4]) | inhibition of migration (HUVEC [2]) | inhibition of adhesion (HUVEC [3]) |
| --- | --- | --- | --- | --- | --- | --- | --- | --- | --- | --- | --- | --- | --- |
| CC[C@H](NC(=O)[C@@H](NC(=O)[C@H](CC(N)=O)NC(=O)[C@H](CC(N)=O)NC(=O)[C@@H](NC(=O)[C@H](CC(N)=O)NC(=O)[C@H](CC)NC(=O)[C@@H](N)Cc1ccccc1)[C@@H](C)CC)C(C)C)C(=O)N[C@@H](CC(N)=O)C(N)=O [SP2020, FAbuNINNVAbuN] | 9.8 ± 4.6 | active | Yes | Inactive | 31.89% | Yes | 84.4% | Yes | complete inhibition of tube formation | Yes | active | – | – |
| CC[C@H](NC(=O)[C@@H](N)Cc1ccccc1)C(=O)N[C@@H](CC(N)=O)C(=O)N[C@H](C(=O)N[C@@H](CC(N)=O)C(N)=O)[C@@H](C)CC [SP2021, FAbuNIN] | – | less active | No | Inactive | Inactive | No | 0% | No | Inactive | No | inactive | inactivation | inactivation |
| CC[C@H](NC(=O)[C@@H](N)Cc1ccccc1)C(=O)N[C@@H](CC(N)=O)C(=O)N[C@H](C(=O)N[C@@H](CC(N)=O)C(=O)N[C@H](C(N)=O)C(C)C)[C@@H](C)CC [SP2030, FAbuNINV] | 144 | less active | No | – | −9.5% | No | 0% (−1.35%) | No | Inactive | No | – | inactivation | inactivation |
